Reference: patent publication US20240277861A1, “ANTI-HEPATITIS B VIRUS AGENT TARGETING HOST FACTOR LIPG” (PUROTECH BIO, INC., priority 2021, published 2024)

Target: T1, biotinylated full-length LIPG (Homo sapiens, UniProt Q9Y5X9)
T1 construct: A pull-down assay was performed on the full-length form of LIPG (500 amino acids); made in house
T1 sequence (Q9Y5X9 21-500): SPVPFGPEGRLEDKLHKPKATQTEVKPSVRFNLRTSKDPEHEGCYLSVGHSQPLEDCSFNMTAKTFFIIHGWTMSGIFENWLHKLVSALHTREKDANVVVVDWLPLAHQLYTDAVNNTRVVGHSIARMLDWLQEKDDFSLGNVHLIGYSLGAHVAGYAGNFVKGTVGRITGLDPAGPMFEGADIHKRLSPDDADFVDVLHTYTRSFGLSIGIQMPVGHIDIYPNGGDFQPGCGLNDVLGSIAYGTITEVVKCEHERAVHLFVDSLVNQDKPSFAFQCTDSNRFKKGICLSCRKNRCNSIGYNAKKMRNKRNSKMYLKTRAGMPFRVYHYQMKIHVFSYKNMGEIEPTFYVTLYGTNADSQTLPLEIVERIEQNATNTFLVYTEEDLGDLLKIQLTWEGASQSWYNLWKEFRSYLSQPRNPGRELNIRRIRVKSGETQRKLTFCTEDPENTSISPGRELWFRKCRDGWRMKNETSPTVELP
Test: Pull-down assay of N4BP1 against full-length LIPG
Type: binding
Settings: culture supernatant containing expressed N4BP1
Experimental: Resin (Streptavidin MagneSphere Paramagnetic Particles, Promega) was washed using the MagneSphere Technology Magnetic Separation Stand (twelve-position). The resin in a volume of 40 μl was added to each 1.5 ml tube, and after removal of the solution, washed three times with 1 ml of PBS. The resin was transferred to new tubes and mixed with the biotinylated full-length LIPG or with an equal volume of PBS as a no bait control, and the resulting mixtures were agitated at 4° C. for 1 hour by rotation on a mini-disk rotor (BIO CRAFT) to allow binding. After removal of the solution, the resin was washed three times with 1 ml of TBST (0.05% Tween 20). The resin was transferred to new tubes, blocked with 1 ml of ELISA BSA buffer (TBS. 0.05%. Tween 20, 10% BSA, Nacalai Tesque, Inc.) at 4° C. for 1 hour, and then washed three times with 1 ml of ELISA BSA buffer. The resin was transferred to new tubes, and 1000 μl of the culture supernatant containing expressed N4BP1 was mixed with 40 μl of the resin treated with the biotinylated full-length LIPG or without the bait, and the resulting mixtures were agitated at 4° C. for 1 hour and 30 minutes by rotation on a mini-disk rotor (BIO CRAFT) to allow binding. After removal of the solution, the resin was washed three times with 500 μl of TBST (Tween 20, 0.10%), and the recovered resin was used for Western blotting. […]

N4BP1: full-length N4BP1 (NEDD4-binding protein 1), SEQ ID NO: 82 [Peptide N4BP1]
binding to LIPG in pull-down assay: binds to LIPG
